Results: patent US20250360236A1, “PROSTATE SPECIFIC MEMBRANE ANTIGEN (PSMA) LIGANDS” (Deutsches Krebsforschungszentrum Stiftung des öffentlichen …, priority 2022, published 2025)

Tests used:
PSMA+-cells (LNCaP) = experiment: Cell surface binding and internalization experiments; assay type: cell-based; conditions: 68Ga-labeled compounds, 30 nM, 45 min 37 °C, specific uptake by blockage with 500 μM 2-PMPA, mean ± SD n=3
Method: For internalization experiments, 10^5 cells per well were seeded in poly-L-lysine coated 24-well cell culture plates 24 h before incubation. After washing, the cells were incubated with 30 nM of the radiolabeled compound for 45 min at 37° C. Cellular uptake was terminated by washing 3 times with 1 mL of ice-cold PBS. To remove surface-bound radioactivity, cells were incubated twice with 0.5 mL glycine-HCl in PBS (50 mM, pH=2.8) for 5 min. The cells were washed with 1 mL of ice-cold PBS and lysed using 0.3 N NaOH (0.5 mL). The surface-bound and the internalized fractions were measured in a gamma counter. The cell uptake was calculated as percent of the initially added radioactivity bound to 10^5 cells [% ID/10^5 cells].

in vivo = experiment: in vivo; design: species or system BALB/c nu/nu mice; conditions: male, BALB/c nu/nu, mouse, iv, 0.06 nmol, total radioactivity, Organ distribution
LNCaP xenograft tumors = experiment: in vivo; design: species or system BALB/c nu/nu mice; conditions: mouse
LNCaP tumor = experiment: Small-animal PET/MR imaging; assay type: in vivo, mice; conditions: 0.5 nmol 68Ga-labeled, dynamic PET up to 60 min p.i.
Method: (§1) For imaging studies, mice were anesthetized (2% isoflurane) and 0.5 nmol of the ^68Ga-labeled compound in 0.9% NaCl (pH 7) were injected into the tail vein. PET imaging was performed with μPET/MRI scanner (BioSpec 3T, Bruker) with a dynamic scan for 60 min. The images were iteratively reconstructed (MLEM 0.5 algorithm, 12 iterations) and were converted to SUV images. Quantification was done using a ROI (region of interest) technique and data in expressed in time activity curves as SUVbodyweight. Mice were sacrificed after PET/MR imaging and optical imaging of the subcutaneous tumor and organs of interest was performed with the Odyssey CLx system (LI-COR Biosciences, excitation wavelength 700 nm). All animal experiments complied with the current laws of the Federal Republic of Germany.

LNCaP (PSMA+) tumor = experiment: Optical imaging of dissected tumor, LNCaP; assay type: in vivo, BALB/c nu/nu mice; conditions: 0.5 nmol 68Ga-labeled BP-2, 2 h p.i., Odyssey CLx, excitation 700 nm, n=1
Method: as §1

PC-3 (PSMA-) tumor = experiment: Optical imaging of dissected tumor, PC-3; assay type: in vivo, BALB/c nu/nu mice; conditions: 0.5 nmol 68Ga-labeled BP-2, 2 h p.i., Odyssey CLx, excitation 700 nm, n=1
Method: as §1

For `CN(CC(=O)NC[C@H]1CC[C@H](C(=O)N[C@H](Cc2ccc3ccccc3c2)C(=O)NCCCC[C@@H](NC(=O)N[C@H](CCC(=O)O)C(=O)O)C(=O)O)CC1)C(=O)CN(C)C(=O)CN(C)C(=O)CN(C)C(=O)CN(C)C(=O)CN(C)C(=O)CN(C)C(=O)CN(C)C(=O)CN(C)C(=O)CN(C)C(=O)C(CCCCNC(=O)CN1CCN(CC(=O)O)CCN(CC(=O)O)CCN(CC(=O)O)CC1)NC(=O)CN(C)C(=O)CN(C)C(=O)CN(C)C(=O)CN(C)C(=O)CN(C)C(=O)CCNC(=O)CCCCC[N+]1=C(/C=C/C=C/C=C2/N(C)c3ccc(S(=O)(=O)[O-])cc3C2(C)C)C(C)(C)c2cc(S(=O)(=O)O)ccc21` (single isomer, unassigned) [BP-2, Glu-urea-Lys-2-Nal-Chx-Sar10-Lys(DOTA)-Sar5-bAla-sulfoCy5], the “Specifically cell surface bound” value (PSMA+-cells (LNCaP)) was 1.2 ± 0.8 % AR/10^5 cells, the Specifically internalized (PSMA+-cells (LNCaP)) was 0.5 ± 0.4 % AR/10^5 cells and the tissue uptake at 2 h (in vivo; Kidney) was 4.61 ± 0.45 %ID/g. For the same molecule, the “tumor uptake at 2 h p.i. as compared to 1 h p.i.” value (LNCaP xenograft tumors) was “differs not significantly”, the “pharmacokinetic properties / excretion profile compared to PSMA-617” value (LNCaP tumor) was “accelerated excretion profile” and the “tumor targeting properties compared to PSMA-617” value (LNCaP tumor) was “comparable to the parental reference PSMA-617”. The “fluorescence signal in PSMA+-tumor” value (LNCaP (PSMA+) tumor) was “high fluorescence signal” and the “fluorescence signal in PSMA−-tumor” value (PC-3 (PSMA-) tumor) was “negligible fluorescence signal”.
For `CN(CC(=O)NC[C@H]1CC[C@H](C(=O)N[C@H](Cc2ccc3ccccc3c2)C(=O)NCCCC[C@@H](NC(=O)N[C@H](CCC(=O)O)C(=O)O)C(=O)O)CC1)C(=O)CN(C)C(=O)CN(C)C(=O)CN(C)C(=O)CN(C)C(=O)CN(C)C(=O)CN(C)C(=O)CN(C)C(=O)CN(C)C(=O)CN(C)C(=O)C(CCCCNC(=O)CN1CCN(CC(=O)O)CCN(CC(=O)O)CCN(CC(=O)O)CC1)NC(=O)CN(C)C(=O)CN(C)C(=O)CN(C)C(=O)CN(C)C(=O)CN(C)C(=O)CCNC(=O)CCCCC[N+]1=C(/C=C/C=C/C=C2/N(C)c3ccc(S(=O)(=O)[O-])cc3C2(C)C)C(C)(C)c2cc(S(=O)(=O)O)ccc21` (single isomer, unassigned) [^177Lu-BP-2, metal not drawn], the tissue uptake at 1 h (in vivo; Blood) was 0.16 ± 0.01 %ID/g, the tissue uptake at 2 h (in vivo; Blood) was 0.05 ± 0.01 %ID/g and the tissue uptake at 1 h (in vivo; Brain) was 0.02 ± 0.005 %ID/g. The tissue uptake at 2 h (in vivo; Brain) was 0.01 ± 0.003 %ID/g, the tissue uptake at 1 h (in vivo; Heart) was 0.07 ± 0.01 %ID/g and the tissue uptake at 2 h (in vivo; Heart) was 0.03 ± 0.003 %ID/g. It also gave a tissue uptake at 1 h (in vivo; Intestine) of 0.1 ± 0.06 %ID/g, a tissue uptake at 2 h (in vivo; Intestine) of 0.03 ± 0.004 %ID/g and a tissue uptake at 1 h (in vivo; Liver) of 1.18 ± 0.61 %ID/g. The tissue uptake at 2 h (in vivo; Liver) was 1.25 ± 0.13 %ID/g, the tissue uptake at 1 h (in vivo; Lung) was 0.27 ± 0.01 %ID/g and the tissue uptake at 1 h (in vivo; Muscle) was 0.03 ± 0.01 %ID/g. It also gave a tissue uptake at 2 h (in vivo; Muscle) of 0.06 ± 0.07 %ID/g, a tissue uptake at 1 h (in vivo; Spleen) of 1.65 ± 0.86 %ID/g and a tissue uptake at 2 h (in vivo; Spleen) of 1.37 ± 0.1 %ID/g. For the same molecule, the tissue uptake at 2 h (in vivo; Tumor) was 4.23 ± 0.19 %ID/g, the tissue uptake at 1 h (in vivo; Tumor LNCaP) was 5.38 ± 2.03 %ID/g and the “Organ distribution, Kidney” value (LNCaP xenograft tumors; male, BALB/c nu/nu, iv, 0.06 nmol, 2 h) was 4.61 ± 0.45 % ID/g.
